scFv variants of Ab-14 (heavy chain) against a SARS-CoV-2 spike peptide

Reference: Engelhart et al. 2022, doi:10.1038/s41597-022-01779-4. File: FLAb, binding data.

Binding partner: SARS-CoV-2 spike HR2 peptide, sequence PDVDLGDISGINAS.

Parent: Ab-14, a human scFv built as VH, three GGGGS repeats, VL. Only the CDRs of the heavy chain vary.
VH: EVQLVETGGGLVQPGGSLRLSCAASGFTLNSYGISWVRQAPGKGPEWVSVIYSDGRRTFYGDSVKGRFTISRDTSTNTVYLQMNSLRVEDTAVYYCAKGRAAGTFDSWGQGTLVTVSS
VL: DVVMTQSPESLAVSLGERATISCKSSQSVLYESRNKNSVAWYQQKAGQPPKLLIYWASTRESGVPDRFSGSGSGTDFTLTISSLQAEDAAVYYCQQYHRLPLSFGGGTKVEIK

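Library AAYL49 holds single substitutions and randomly drawn double and triple substitutions in the CDRs. Affinity was read by AlphaSeq, a pooled yeast mating assay with surface-displayed partners. After mating in shaken culture at 30 °C for 16 h, diploids were selected and their barcode pairs sequenced. A regression on co-assayed BCL2-family reference pairs converts the normalised counts of each replicate to an apparent Kd. The assay was run in three technical replicates.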

Positions count from residue 1 of the parent VH; I34D puts D in place of I. Affinities are written as log10 Kd with Kd in nM; a lower number is a better binder. A mean of the replicates is given; it leaves out those without a signal. "ND" means that the variant was in the library but no mating with the target was seen in that replicate; the authors take this as a sign of poor binding, and no number exists. Empty control strains, which show no peptide, gave a signal in 15% of pairings with library AAYL49; the median was 4.06 and 95% of these signals were weaker than 2.83. No background was subtracted. For each scFv, signals with the empty controls are counted beside the result, with their mean in brackets. Parent in this assay: reference entry 0.65, copy in this library 4.11 (one replicate of three).

changes,"log10 Kd, replicates",mean log10 Kd (nM),empty controls
I34D+S35F+T104I,ND ND ND,ND,0/9
Y52I+A101K+S107V,ND 3.44 ND,3.44,0/9
G26E+R57F+D62I,ND ND ND,ND,1/9 (2.47)
F27C+L29T+I51H,ND ND ND,ND,1/9 (3.77)
F27S+T28A+S31M,3.01 1.62 3.27,2.64,0/9
Y32H+Y60K+G99H,ND ND ND,ND,1/9 (3.90)
G26L+G33C+G103N,ND ND ND,ND,0/9
T28A+I34G+A102T,ND 3.58 4.19,3.89,4/9 (3.96)
N30I+S35K+R57F,ND 4.21 ND,4.21,2/9 (3.67)
T28F+L29I+A102I,2.13 2.30 2.09,2.17,3/9 (3.62)
V50E+Y52V+S63T,ND ND ND,ND,1/9 (3.85)
G26I+F59S+S107E,1.12 0.84 1.13,1.03,2/9 (3.91)
I34S+R57A+T104K,5.03 3.43 ND,4.23,3/9 (4.51)
A101S+T104V,ND 3.79 ND,3.79,2/9 (3.71)
N30T+S31M+S107R,ND ND ND,ND,0/9
R56M+V64K,ND ND ND,ND,3/9 (3.60)
S35Q+R57L+R100G,5.24 ND ND,5.24,0/9
L29D+S31M+F105Q,3.89 2.75 ND,3.32,3/9 (4.30)
I51F+G61P+R100W,ND ND 4.77,4.77,1/9 (4.75)
R57L+K65P+D106T,ND ND ND,ND,0/9
R57C+G61E+D62H,ND ND 2.23,2.23,0/9
I34V+G61I+V64N,ND ND 5.33,5.33,2/9 (3.66)
V50K+Y52E+T104N,ND ND ND,ND,0/9
R56I+D62L+R100Q,4.85 5.09 4.03,4.66,2/9 (4.34)
V64H+G99S+D106F,ND ND ND,ND,3/9 (3.15)
N30A+S35T+F59W,ND ND ND,ND,0/9
T28G+R56N+S107D,2.52 1.95 2.71,2.39,0/9
N30H+G33Y+S53D,4.07 3.72 ND,3.89,4/9 (4.28)
G26P+D54S+G99L,ND ND ND,ND,0/9
T28E+I51M+K65N,4.00 3.49 ND,3.74,4/9 (4.15)
G26T+V64L+A102Q,5.65 ND 5.86,5.76,3/9 (3.87)
T28V+I34V+G61M,2.96 2.42 2.84,2.74,1/9 (3.28)
S35K+I51T+D106C,ND ND ND,ND,0/9
G26V+N30W+A102I,ND ND ND,ND,0/9
G55Y+Y60C+G103D,ND ND ND,ND,1/9 (4.57)
Y32R+G103T+F105M,ND 3.36 4.18,3.77,4/9 (4.15)
G61D+A101F,3.40 2.69 2.52,2.87,3/9 (3.89)
Y52M+S53Q+R100I,ND ND ND,ND,0/9
I34M+Y52T+K65N,ND 3.16 ND,3.16,0/9
F27S+T58K+V64I,ND ND ND,ND,0/9
Y52N+G99I,ND ND ND,ND,1/9 (3.57)
S35W+R56P+G103D,ND ND ND,ND,1/9 (3.84)
Y32L+G61N+T104V,ND ND ND,ND,1/9 (2.98)
S53I+A102E+F105S,ND 3.44 ND,3.44,3/9 (3.92)
Y52C+R56L+S107I,ND 3.66 4.80,4.23,2/9 (3.80)
G26H+V50I+R100N,ND ND 1.98,1.98,0/9
G55L+A101E+G103F,4.40 ND ND,4.40,0/9
S35L+G55E+Y60A,ND ND ND,ND,1/9 (2.42)
G33A+V50M+D54C,ND ND ND,ND,0/9
G26S+F105Y,ND 3.04 4.28,3.66,4/9 (4.69)

The 4 strongest on average among those seen in every replicate, once more:

changes,"log10 Kd, replicates",mean log10 Kd (nM),empty controls
G26I+F59S+S107E,1.12 0.84 1.13,1.03,2/9 (3.91)
T28F+L29I+A102I,2.13 2.30 2.09,2.17,3/9 (3.62)
T28G+R56N+S107D,2.52 1.95 2.71,2.39,0/9
F27S+T28A+S31M,3.01 1.62 3.27,2.64,0/9